Compounds with a hit are over-represented: about 3.7% of the library has one in this group of screens.
ClpP mod: qHTS Assay for Activators of ClpP. ATP-dependent Clp protease proteolytic subunit (Bacillus subtilis (strain 168)), P80244. purified B. subtilis ClpP, FRET peptide cleavage, 20 min. Potency, µM (doses to about 57.5 µM), without a hit: at the top dose activity change, negative = active. 1.9% of 340,000 active; active = well fitted falling curve with a large enough effect; inconclusive = small, poorly fitted or top-dose-only effect; inactive = no such curve, though single readings can be large or run the other way; also: potency is read from the fitted curve at half-maximal effect; the source files actives as falling curves though it sought activators and does not explain the sign; nearly all actives have a fitted effect of over 65% in size
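Buffer: 100 mM Tris/HCl pH8, 100 mM KCl, 0.05% low protease BSA, 2.5% glycerol, 0.01% Tween-20. ClpP 10 microg/mL final; 20 min RT; delta FRET normalized to ADEP and DMSO controls.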
TCR activator: activators of T cell receptors | primary human leukocytes, anti-CD3, IL-2 HTRF, 48 h | Potency, µM (highest dose often 9.22 µM), for inactives: top-dose activation of IL-2 secretion, most hits filed as activators | 330,000 tested, under 10 active; also: % of control where 0% means no effect
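Human primary leukocytes + a-CD3 beads + cpd, 48 hr; IL-2 in supernatant by HTRF (ex 320nm / em 665nm). No co-stimulatory signal supplied.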
Nrf2 ARE act: activates Nrf2 signaling | AREc32 ARE-luciferase reporter (MCF7-derived line), luminescence, 24 h | Potency, µM (top dose mostly 46.1 µM), for the others: top-dose activation, usual class: activators | 0.31% of 410,000 active; also: potency is read from the fitted curve at half-maximal effect; % of control where 0% means no effect; nearly all actives have a fitted effect of over 65% in size
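Reporter line AREc32 (ARE-Fluc), seeded overnight in OPTI-MEM with 5% FBS; compound pin-transferred, 24 hr at 37 deg C, 5% CO2; luminescent read-out.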
A549 tox: counter-screen for Nrf2 inhibitors: cytotoxicity in A549 cells | 0.16% of 390,000 active | Potency, µM (titrated, usually from 46 µM), without a hit: top-dose activity change, negative = cytotoxicity, usual class: inhibitors | A549 ARE-Fluc cells, CellTiter-Fluor viability, 18-24 h; also: potency is read from the fitted curve at half-maximal effect; % is scaled to controls: 0 for no effect and ±100 for the full control effect
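A549 ARE-Fluc cells in 5% FBS OPTI-MEM, 5000 cells/well, rested 2 h then exposed to compounds in concentration-response for 18-24 h at 37 °C. Viability by CellTiter-Fluor fluorescence (Ex 405/Em 525) after 30 min; luciferase luminescence (BugLite, 15 min, RT) read afterwards.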
Nrf2 inh: Nrf2 pathway inhibition; AID 504444; Potency, µM (series often up to 46 µM), inactives show top-dose activity change, negative = inhibition, hits mostly inhibitors; A549 ARE-Fluc reporter, luciferase luminescence, 18-24 h; 2.1% of 360,000 active; also: potency is read from the fitted curve at half-maximal effect; % is scaled to controls: 0 for no effect and ±100 for the full control effect; nearly all actives have a fitted effect of over 60% in size
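Quantitative HTS in A549 cells stably bearing an antioxidant response element-firefly luciferase construct. Inhibition of Nrf2-driven transcription was scored by luminescence after 18-24 h of compound exposure at 37 °C.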
miR-21 reporter: miR-21 reporter, rising signal. HeLa miR-21 FLuc reporter, luciferase, 48 h. Potency, µM (titrated, usually from 38.3 µM), without a hit: at the top dose reporter change, positive = more light. 340,000 tested, under 10 active. AID 2288; active = well fitted rising curve with a large enough effect; inconclusive = small, poorly fitted or top-dose-only effect; inactive = no such curve, though single readings can be large or run the other way;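 also: % of control where 0% means no effect; miR-21 action dims this reporter so a rising signal means less miR-21 action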
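HeLa cells endogenously expressing miR-21, stably carrying CMV-driven firefly luciferase with a downstream miR-21 binding site, 2000 cells/well. Titrations up to approximately 40 uM, 48 hours; luciferase luminescence read.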
* marks the source's active call; other numbers are inactive results; ? = inconclusive; . = no result; [ ] = another dose, or the depositor's remark. Unless noted, calls follow the shape of the dose curve; as a rule, active = well fitted curve in the direction sought with a large enough effect; inconclusive = small, poorly fitted or top-dose-only effect, or another doubt; inactive = no such curve, though single readings can be large; an effect the other way counts as inactive or inconclusive.

Assay codes: A = ClpP mod; B = TCR activator; C = Nrf2 ARE act; D = A549 tox; E = Nrf2 inh; F = miR-21 reporter
> Cc1ccc(NS(=O)(=O)c2cc3c(cc2/C=C/c2ccccc2)NC(=O)CO3)cc1C
  A = . | B = . | C = . | D = 1% | E = 4% | F = .

> CCOC(=O)N1c2ccccc2Sc2ccccc21
  A = 0% | B = 4% | C = -1% | D = -2% | E = -11% | F = 5%

> Cc1nnc(SC(=O)N2c3ccccc3Sc3ccccc32)s1
  A = 0% | B = -6% | C = ? | D = 0% | E = 13µM* | F = 27%

> CCCCC(=O)OCCNC(=O)c1cc2ccccc2oc1=O
  A = 25µM* | B = -1% | C = 0% | D = 5% | E = . | F = -11%

> CC(=O)Nc1ccc2c(c1)C(=Nc1ccccc1)c1ccccc1-2
  A = . | B = 2% | C = 11µM* | D = 4% | E = 27% | F = .

> CC(=O)Nc1ccc2c(c1)C(=Nc1ccc(C)cc1)c1ccccc1-2
  A = 2% | B = 5% | C = 13µM* | D = -1% | E = 9% | F = .

> CC(=O)Nc1ccc2c(c1)C(=O)c1ccccc1C2=O
  A = -2% | B = 3% | C = 7% | D = 1% | E = ? | F = -58%

> CCOC(=O)Nc1ccc2c(c1)C(=NO)c1ccccc1-2
  A = 1% | B = -1% | C = 7% | D = -6% | E = ? | F = .

> Cc1ccc(C2(C)NC(=O)N(CC(=O)NC3CCCCC3)C2=O)cc1 (configuration not stated)
  A = . | B = 2% | C = -1% | D = -3% | E = 5% | F = .

> O=C(OCc1nnc(-c2ccccc2)o1)C1CC(=O)N(CCc2ccccc2)C1 (configuration not stated)
  A = -3% | B = 1% | C = 7% | D = 1% | E = 18% | F = .

> Cc1cccc(CNC(=O)C2CCN(S(=O)(=O)c3cccc4nonc34)CC2)c1
  A = 1% | B = . | C = 0% | D = -1% | E = . | F = 0%

> COc1ccccc1NC(=O)CSc1nnc2c3ccccc3n(C(C)C)c2n1
  A = -1% | B = . | C = 0% | D = ? | E = 18µM* | F = 29%

> COc1ccc([C@H]2CC(=O)C=C(c3ccc(Cl)c(C(F)(F)F)c3)C2)cc1OC
  A = -4% | B = -2% | C = 0% | D = ? | E = 16µM* | F = .

> C=CCOc1ccc(/C=C(\C#N)C(=O)Nc2ccccn2)cc1
  A = -13% | B = 5% | C = 2% | D = 3% | E = 3% | F = -1%

> Cc1[nH]c2ccccc2c1/C=C/c1c(C)[nH]c2ccccc12
  A = 17% | B = . | C = . | D = . | E = . | F = .

> Cc1[nH]c2ccccc2c1/C=C/c1cc[n+](C)cc1
  A = 2% | B = 16% | C = -1% | D = 8.2µM* | E = 2.1µM* | F = 20%

> C=CCC[C@@H](Cc1ccc(F)cc1)C(=O)OC[C@@H](Cc1c[nH]c2ccccc12)NC(=O)[C@H](CC=C)CC(=O)N(CCO)Cc1ccccc1
  A = -2% | B = -1% | C = -5% | D = ? | E = 23µM* | F = .

> C=CC[C@H](CC(=O)N(CCO)Cc1ccccc1)C(=O)N[C@@H](COC(=O)[C@@H](CC=C)Cc1ccc(F)cc1)Cc1c[nH]c2ccccc12
  A = 1% | B = 1% | C = -2% | D = ? | E = 18µM* | F = .

> C=CC[C@@H](CC(=O)N(CCO)Cc1ccccc1)C(=O)N[C@@H](COC(=O)[C@@H](CC=C)Cc1ccc(F)cc1)Cc1c[nH]c2ccccc12
  A = 2% | B = 2% | C = -4% | D = ? | E = ? | F = .

> C=CCC[C@H](Cc1ccc(F)cc1)C(=O)OC[C@@H](Cc1c[nH]c2ccccc12)NC(=O)[C@H](CC=C)CC(=O)N(CCO)Cc1ccccc1
  A = 1% | B = 11% | C = -2% | D = ? | E = 21µM* | F = .

> O=C1CCCC/C1=C\Nc1ccccc1C(=O)O
  A = 32µM* | B = 0% | C = 0% | D = ? | E = -23% | F = -6%

> Cc1cc(C)n2nc(C(=O)OCC(=O)NC3CCS(=O)(=O)C3)nc2n1 (configuration not stated)
  A = 2% | B = . | C = -2% | D = . | E = . | F = .

> N#Cc1c(N2CCCCC2)nc(N)c2c(N)nc3c(c12)CC(c1ccccc1)O3 (configuration not stated)
  A = 28µM* | B = 1% | C = 0% | D = 1% | E = -6% | F = 4%

> CCN(CC)c1nc(N)c2c(N)nc3c(c2c1C#N)CC(c1ccccc1)O3 (configuration not stated)
  A = 28µM* | B = 2% | C = 0% | D = -80% | E = ? | F = 24%

> CC(C)(C)c1ccc(C(=O)C[n+]2ccc(Cl)c3ccc(Cl)cc32)cc1
  A = -5% | B = . | C = . | D = . | E = . | F = .

> CC(C)=CC(=O)Nc1ccccc1Br
  A = 1.3µM* | B = 1% | C = 1% | D = 8% | E = 2% | F = -4%

> CCCCNc1nc(CC)c2c(c1C#N)CCCC2
  A = 28µM* | B = -3% | C = 0% | D = 5% | E = 11% | F = 1%

> CCCCc1nc(NCCO)c(C#N)c2c1CCCC2
  A = 4% | B = -7% | C = -1% | D = 8% | E = ? | F = 20%

> O=C1CC(C(=O)Nc2ccc(Br)cc2)S/C(=N\N=C\c2ccco2)N1 (configuration not stated)
  A = 1% | B = 9% | C = 6.3µM* | D = -2% | E = -7% | F = -2%

> COc1ccc(NC(=O)C2CC(=O)N/C(=N/N=C/c3ccco3)S2)cc1 (configuration not stated)
  A = . | B = 1% | C = 2.5µM* | D = 10% | E = ? | F = -3%

> O=C1CC(C(=O)Nc2ccc(Cl)cc2)S/C(=N\N=C\c2ccco2)N1 (configuration not stated)
  A = . | B = -2% | C = ? | D = 1% | E = -3% | F = -2%

> O=C1CC(C(=O)Nc2ccccc2)S/C(=N\N=C\c2ccco2)N1 (configuration not stated)
  A = 0% | B = 9%[46.1 µM] | C = ? | D = -9% | E = 3% | F = -7%

> S=c1[nH]nc(-c2ccco2)n1/N=C/c1cccc(Cl)c1Cl
  A = -1% | B = 6%[46.1 µM] | C = 8.9µM* | D = -3% | E = 3% | F = -11%

> CCOC(=O)C1CCN(C(=O)Nc2ccc3nccnc3c2)CC1
  A = 32µM* | B = 6%[46.1 µM] | C = -1% | D = -3% | E = . | F = -15%

> Cc1ccc(CNC(=O)CCCCCn2c(=O)c3sccc3n(CC(=O)N(C)c3ccccc3)c2=O)cc1
  A = 0% | B = . | C = 0% | D = -13% | E = -21% | F = -2%

> CN(C)c1ccc(/C=C2\C=Cc3ccccc32)cc1Cl
  A = -1% | B = . | C = . | D = . | E = . | F = .

> S=c1[nH]nc(-c2ccccc2)n1/N=C/C=C/c1ccco1
  A = 1% | B = 0%[46.1 µM] | C = ? | D = -2% | E = -7% | F = -8%

> Cc1ccccc1-c1n[nH]c(=S)n1/N=C/C=C/c1ccco1
  A = 0% | B = -3% | C = 13µM* | D = -4% | E = ? | F = 0%

> CC(=O)N(c1ccc2ccccc2c1)C1SC(=O)N(c2cccc(C)c2)C1=O (configuration not stated)
  A = 3% | B = . | C = . | D = -3% | E = ? | F = .

> Cc1nn(-c2ccccc2)nc1C(=O)c1c(C)[nH]n(-c2ccccc2)c1=O
  A = . | B = -6% | C = 0% | D = ? | E = 21µM* | F = -1%

> Cc1[nH]n(-c2ccccc2)c(=O)c1C(=O)c1ccc([N+](=O)[O-])cc1
  A = . | B = 2% | C = 0% | D = -9% | E = ? | F = 9%

> COc1ccc(OCCC(=O)Nc2ccccc2)cc1
  A = 2% | B = . | C = 1% | D = -4% | E = 4% | F = -13%

Compound profiles (already shown). Order of values: ClpP mod, TCR activator, Nrf2 ARE act, A549 tox, Nrf2 inh, miR-21 reporter
Record of `S=c1[nH]nc(-c2ccco2)n1/N=C/c1cccc(Cl)c1Cl` = -1%, 6%[46.1 µM], 8.9µM*, -3%, 3%, -11%
Record of `CCOC(=O)C1CCN(C(=O)Nc2ccc3nccnc3c2)CC1` = 32µM*, 6%[46.1 µM], -1%, -3%, ., -15%

A few values from the entries so far.
Cc1nn(-c2ccccc2)nc1C(=O)c1c(C)[nH]n(-c2ccccc2)c1=O – TCR activator = -6%
S=c1[nH]nc(-c2ccccc2)n1/N=C/C=C/c1ccco1 – TCR activator = 0%[46.1 µM]

Screening results: PubChem, National Center for Advancing Translational Sciences (NCATS)
